These are literature values, as cited in paper PMC11042244 (RSC Medicinal Chemistry, 2024).

Usually IC50 stands for the midpoint of a concentration-inhibition curve.

The test system of the series is HNE. Set-up: method as in PMID 12161131. Particulars: printed in picture of Fig. 1; cited from earlier work.

`CC(C)(C)C(=O)Oc1ccc(S(=O)(=O)Nc2ccccc2C(=O)NCC(=O)O)cc1` [Sivelestat, reference compound]: the IC50 was 44 nM.
